Legend:
[1] = biological target: p53 R273H-Δ22 (human) (UniProt P04637); test: p53-antibody complexes captured on protein-G plates, detected via CM-1
[2] = biological target: p53 G245S-Δ22 (human) (UniProt P04637); test: as above

## Pab1620 antibody
[1]
  Pab1620 epitope presence, % of wild-type (% of wild-type): 100
[2]
  Pab1620 epitope presence, % of wild-type (% of wild-type): 55
